Values quoted from earlier work, collected in US20050182002A1, “Agents which interact with a serotonin transporter for the treatment of cancer” (priority 2002, published 2005).

System: neuronal SERT
Details: read-out: known IC50 values for blocking 5-HT uptake by neuronal SERT; cited from earlier work

## Fc1ccc([C@@H]2CCNC[C@H]2COc2ccc3c(c2)OCO3)cc1 [paroxetine]
  IC50: 0.29 nM
